{"source": "paper PMC11756396", "about": "“Dynamic allostery in the peptide/MHC complex enables TCR neoantigen selectivity” (Nature Communications, 2025)", "key": {"[1]": {"test_system": "TCR4-expressing T cells co-cultured with HLA-A3+ antigen presenting cells (Cos-7)", "test": "CD107a degranulation of TCR4-transduced T cells, peptide-pulsed HLA-A3+ APC (flow cytometry)", "details": "6 h co-culture, E:T 1:1, mean of three replicates"}, "[2]": {"test_system": "T cells", "design": "method as in 2 sources, one per row (each row's own in cited_ref): ref 5, ref 16 ||| ref 15 = [15]; PMID 35484264; doi:10.1038/s41591-022-01786-3; 15. Chandran, S. S. et al. Immunogenicity and therapeutic targeting of a public neoantigen derived from mutated PIK3CA. Nat. Med. 28 , 946–957 (2022). 10.1038/s41591-022-01786-3 PMC9117146 35484264", "details": "numerous T cell clones; cited from earlier work"}}, "data": [{"substance": "AHHGGWTTK [WT peptide]", "values": [{"measurement": "CD107a, absolute frequency", "setting": "[1]; peptide 1.00E-04 ug/mL", "result": 1.567}, {"measurement": "CD107a, absolute frequency", "setting": "[1]; peptide 1.00E-06 ug/mL", "result": 1.573}]}, {"substance": "MART-1: nonameric MART-1 tumor antigen presented by HLA-A2 [reference compound]", "values": [{"measurement": "T cell responses", "setting": "[2]", "result": "measurable responses"}]}]}
